Reference: patent US5906819

Target: intact myosin (chicken)

- apparent Ka value for actin in the actin-activated MgATPase assay: 0.56 µM
Substance: F-actin (from UniProt P68135)
